Measurements published in PubChem BioAssay AID488960 (Johns Hopkins Ion Channel Center, 2010).
This is a selection; strong and weak results do not stand in their true shares. Activity calls are given as the source filed them.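 Rule for the calls: active = fluorescence ratio falls more than 5 SD below the full-stimulation control mean, in both duplicate runs; inactive = the rest.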

Amino acid sequences for entries named in this document (tags omitted).
UniProt Q61143, whole entry: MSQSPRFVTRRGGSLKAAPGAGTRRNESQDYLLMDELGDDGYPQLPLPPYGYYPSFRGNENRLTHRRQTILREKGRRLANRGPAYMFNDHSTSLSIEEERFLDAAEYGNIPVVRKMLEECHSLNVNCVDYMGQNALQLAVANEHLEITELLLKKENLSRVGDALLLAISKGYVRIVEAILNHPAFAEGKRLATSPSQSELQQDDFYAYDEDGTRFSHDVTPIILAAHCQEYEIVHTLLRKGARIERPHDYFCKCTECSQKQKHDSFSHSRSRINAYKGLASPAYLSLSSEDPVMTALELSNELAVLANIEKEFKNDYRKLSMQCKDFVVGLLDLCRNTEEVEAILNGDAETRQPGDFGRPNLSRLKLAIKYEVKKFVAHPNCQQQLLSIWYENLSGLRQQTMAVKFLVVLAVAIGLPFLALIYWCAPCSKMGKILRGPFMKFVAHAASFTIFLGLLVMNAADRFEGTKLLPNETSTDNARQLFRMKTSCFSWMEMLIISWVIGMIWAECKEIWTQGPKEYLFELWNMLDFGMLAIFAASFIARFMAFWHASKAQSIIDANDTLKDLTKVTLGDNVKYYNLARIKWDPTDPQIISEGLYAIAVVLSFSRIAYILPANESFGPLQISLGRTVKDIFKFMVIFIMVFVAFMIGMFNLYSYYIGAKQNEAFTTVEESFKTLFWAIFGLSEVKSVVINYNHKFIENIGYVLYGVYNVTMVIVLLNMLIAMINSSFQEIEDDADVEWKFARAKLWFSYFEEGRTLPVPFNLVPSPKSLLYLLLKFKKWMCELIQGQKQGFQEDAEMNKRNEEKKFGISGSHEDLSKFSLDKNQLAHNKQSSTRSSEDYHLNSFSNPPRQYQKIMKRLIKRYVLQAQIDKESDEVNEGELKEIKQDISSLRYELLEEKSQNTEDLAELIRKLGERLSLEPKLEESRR

biological target: Short transient receptor potential channel 6 (Mus musculus) (UniProt Q61143); assay: blockers of TRPC6 cation channel activity – HEK293 cells, membrane potential dye, duplicate, confirmation (AID 488960); conditions: ACh-evoked depolarization, at 10 µM; active compounds read high;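 for inhibition: integrated fluorescence ratio of peak minus minimum over baseline after agonist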

Compound | inhibition
CN1CCN(CCOC(=O)C(O)(c2ccccc2)c2ccccc2)CC1 | active: 76%
O=C(OC1CN2CCC1CC2)C1c2ccccc2Oc2ccccc21 (centres undefined) | inactive
CCC(CO)(C(=O)OC1CN2CCC1CC2)c1ccccc1 (centres undefined) | active: 69.8%
O=C(OC1CN2CCC1CC2)C1c2ccccc2C=Cc2ccccc21 (centres undefined) | active: 74%
